Values of other authors as cited in US6663886B2, “Inhibition of cell-cell binding by lipid assemblies” (Regents of the University of California, priority 1997, dated 2003).

Assays:
P-selectin = target: T1, P-selectin (Homo sapiens, UniProt P16109); conditions: literature (Nelson et al. 1993; Moore et al. 1991)
T1 sequence (P16109 42-830): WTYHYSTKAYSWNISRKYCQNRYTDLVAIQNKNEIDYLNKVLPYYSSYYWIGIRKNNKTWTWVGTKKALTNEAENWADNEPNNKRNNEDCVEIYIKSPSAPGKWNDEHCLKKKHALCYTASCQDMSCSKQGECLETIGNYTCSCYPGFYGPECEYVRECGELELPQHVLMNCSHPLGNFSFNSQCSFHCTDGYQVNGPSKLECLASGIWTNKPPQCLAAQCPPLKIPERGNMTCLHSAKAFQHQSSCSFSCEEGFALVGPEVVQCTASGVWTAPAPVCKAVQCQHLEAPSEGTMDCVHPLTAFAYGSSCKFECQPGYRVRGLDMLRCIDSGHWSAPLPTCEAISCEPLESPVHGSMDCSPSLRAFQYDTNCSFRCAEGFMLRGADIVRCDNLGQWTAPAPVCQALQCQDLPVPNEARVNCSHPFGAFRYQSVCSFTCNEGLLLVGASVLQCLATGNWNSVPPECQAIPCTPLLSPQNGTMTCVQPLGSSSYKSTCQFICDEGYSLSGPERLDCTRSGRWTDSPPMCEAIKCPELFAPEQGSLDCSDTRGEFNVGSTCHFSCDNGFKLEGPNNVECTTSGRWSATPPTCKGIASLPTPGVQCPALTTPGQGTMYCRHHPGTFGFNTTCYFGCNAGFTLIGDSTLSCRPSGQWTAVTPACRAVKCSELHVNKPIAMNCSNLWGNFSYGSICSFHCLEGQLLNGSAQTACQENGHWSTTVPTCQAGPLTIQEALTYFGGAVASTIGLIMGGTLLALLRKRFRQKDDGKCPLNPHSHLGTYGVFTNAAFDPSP

L-selectin = target: T2, L-selectin (Homo sapiens, UniProt P14151); conditions: literature (Nelson et al. 1993)
T2 sequence (P14151 39-372): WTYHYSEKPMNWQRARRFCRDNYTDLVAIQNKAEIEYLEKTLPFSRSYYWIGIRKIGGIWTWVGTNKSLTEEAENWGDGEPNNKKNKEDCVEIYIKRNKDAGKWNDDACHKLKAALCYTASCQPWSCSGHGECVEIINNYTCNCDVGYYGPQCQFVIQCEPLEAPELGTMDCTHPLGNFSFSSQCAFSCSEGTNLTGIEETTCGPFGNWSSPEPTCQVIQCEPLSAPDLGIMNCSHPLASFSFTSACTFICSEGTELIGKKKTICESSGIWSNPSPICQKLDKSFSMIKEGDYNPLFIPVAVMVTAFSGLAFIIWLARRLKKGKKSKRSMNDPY

Substance: NeuAcα2,3Galβ1,4(fucα1,3)GlcNac- [sLe^x]
- binding affinity of P-selectin (P-selectin): in the mM range
- binding affinity of L-selectin (L-selectin): in the mM range
